Test results taken from PMC6675714 (Cancer Medicine, 2019).

Tests used:
[1] = Hematology values (complete blood count) after the trial; assay type: in vivo, NOD-SCID mice; conditions: manual differential, blood 72h after last dose, 21 day trial; reference range 0.00-0.39
Method: Supplementary Table 2. Summary of hematology values (mean) for three specimens (collected 72h after the last dose of 10mg/kg/72h at the end of a 21 day trial (NOD/LtSz-Prkdscid/j. Complete blood counts of each group (n = 3 mice per group). Heparinized blood acquired from mice was assessed using the automatic Hematology Analyzer. Blood smears were carried out and fixed with methanol, stained, and observed under the microscope to carry out differential blood white cell counts.

[2] = Maximum tolerated dose (MTD) of RANCE‐1, ip; assay type: in vivo, NOD.CB17‐Prkdc SCID/J mice
Method: Following 6 intraperitoneal (ip) doses between 30 mg/kg/48 h and 50 mg/kg/48 h followed by a 2‐week recovery period. Vehicle solution (0.5% DMSO + 99.5% normal saline) treated mice were used as controls. Lung, liver, kidney, spleen, and heart were collected, weighed and visually evaluated during a gross necropsy. Parameters such as physical distress and mortality were monitored.

[3] = Plasma pharmacokinetics after single ip injection (Ru by ICP‐MS); assay type: in vivo; conditions: 10 mg/kg single ip
Method: Blood was collected from submandibular vein using a heparin coated glass capillary into heparinized blood collection tubes on ice at time intervals of 1, 2, 6, 12, 24, 48, and 72 hours post injection. Plasma was harvested by centrifuging blood samples at 2800 rpm for 15 minutes at 4°C and stored frozen at − 80°C until analysis. Similarly, kidney, liver, and tumor were harvested after final time point, weighed, and stored into glass vials. One mL of deionized water was added to each tissue sample, subjected to ultrasonic homogenization at 15 W power for 1 minute, followed by lyophilization.
Plasma and tissue concentrations of Ru and Au were measured using inductively coupled plasma–mass spectrometry (ICP‐MS). […] All samples were then mixed with 40 ppb of indium internal standard and analyzed using a Thermo Scientific XSERIES 2 ICP‐MS coupled with ESI PC3 Peltier cooled spray chamber, SC‐FAST injection loop, and SC‐4 autosampler. All the elements were measured using He/H2 collision‐reaction mode.
Pharmacokinetic parameters were obtained from the plasma concentration–time profiles by noncompartmental analysis using Phoenix WinNonlin 6.4 version 6.4 (Pharsight Corporation, Mountain View, CA). […] Concentrations of ruthenium and gold in liver, kidney, and tumors were also determined.

[4] = Plasma chemistry parameters after the trial; assay type: in vivo, tumor bearing NOD-SCID mice; conditions: plasma 72h after last dose of 10mg/kg/72h, 21 day trial
Method: Supplementary Table 1. Summary of plasma chemistry parameters metabolic analytes for three specimens (collected 72h after the last dose of 10mg/kg/72h at the end of a 21 day trial) from 3 tumor bearing NOD-SCID (NOD/LtSz-Prkdscid/j. The study criteria reflect pathological criterion used in clinical studies. Metabolic markers were quantified from freshly isolated plasma and compared to reference range.

[Cl2(p‐cymene)Ru(μ‐dppm)Au(IMes)]ClO4 [RANCE‐1]
EO# [1]: 0.01667 K/uL
Relatively safe dose ([2]; 2 week treatment): ≤ 35 mg/kg
Local toxicity in the peritoneal cavity at gross necropsy ([2]; MTD study): no obvious signs of local toxicity
ke [3]: 0.0196 ± 0.0088 h^‐1
A/G ratio [4]: 0.99
Na/K ratio [4]: 13.89
BUN/CREA ratio ([4]; marked *▴): 183.33
TP ([4]; reference range 4.8-7.2): 5.2 g/dL
BUN ([4]; reference range 5.0-28): 18.33 mg/dL
K ([4]; reference range 7.3-11.1): 10.97 mEq/L
Ca ([4]; reference range 9.5-12.5): 9.67 mg/dL
Na ([4]; reference range 145-181): 150.67 mEq/L
CK ([4]; reference range 428-1609, marked *▾ ◎): 368.67 U/L
